Measured values reported in ChEMBL document CHEMBL1150971, “Crystal structures of catalytic subunit of cAMP-dependent protein kinase in complex with isoquinolinesulfonyl protein kinase inhibitors H7, H8, and H89. Structural implications for selectivity” (J Biol Chem, 1996).

Key:
[1] = Inhibitory constant against cGPK (PKG); parameters: species or system Sus scrofa
[2] = target: cAMP-dependent protein kinase A (Bos taurus, UniProt P00515+P00517+P05131+P31322); assay: Inhibitory constant against bovine cAPK (PKA); type: protein-complex assay

O=S(=O)(NCCNC/C=C/c1ccc(Br)cc1)c1cccc2cnccc12
Ki [1]: 480 nM
Ki [2]: 480 nM
